Data reported in patent US7173024B2, “Compounds having prolyl oligopeptidase inhibitory activity, methods for their preparation and their use” (Orion Corporation, priority 2001, dated 2007).

Amino acid sequences for entries named in this document (tags omitted). A change or cut given only in a name is not applied to a line headed by its entry.
UniProt P23687: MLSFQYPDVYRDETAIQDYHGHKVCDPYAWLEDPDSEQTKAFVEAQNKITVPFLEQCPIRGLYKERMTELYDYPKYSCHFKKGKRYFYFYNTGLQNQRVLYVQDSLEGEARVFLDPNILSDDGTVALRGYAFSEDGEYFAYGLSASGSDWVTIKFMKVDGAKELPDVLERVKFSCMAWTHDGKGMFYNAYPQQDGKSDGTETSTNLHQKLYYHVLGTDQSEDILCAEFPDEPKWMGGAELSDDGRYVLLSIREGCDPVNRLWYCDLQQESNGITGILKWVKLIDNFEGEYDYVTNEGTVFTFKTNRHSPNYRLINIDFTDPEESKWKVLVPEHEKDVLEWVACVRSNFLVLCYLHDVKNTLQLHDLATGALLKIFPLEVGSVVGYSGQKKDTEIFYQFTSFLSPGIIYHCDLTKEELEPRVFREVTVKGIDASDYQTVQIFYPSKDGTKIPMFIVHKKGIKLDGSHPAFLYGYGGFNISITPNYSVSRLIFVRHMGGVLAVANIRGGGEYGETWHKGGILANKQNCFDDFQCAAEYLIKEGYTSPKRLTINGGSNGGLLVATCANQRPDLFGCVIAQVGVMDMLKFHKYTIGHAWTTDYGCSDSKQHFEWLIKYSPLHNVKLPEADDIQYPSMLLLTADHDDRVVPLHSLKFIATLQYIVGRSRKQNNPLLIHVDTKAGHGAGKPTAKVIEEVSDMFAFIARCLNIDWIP

Biological target: T1, pig brain prolyl oligopeptidase (Sus scrofa, UniProt P23687)
T1 construct: The brains were homogenized with a glass-teflon homogenisator; from tissue; host or cells: pig brain (excluding cerebellum and most of the brain stem), 10000 g supernatant of the homogenate
Assay: Inhibition of prolyl oligopeptidase activity of pig brain (Suc-Gly-Pro-AMC, fluorometric)
Assay type: biochemical
Conditions: pig brain homogenate supernatant, 30° C., pH 7.0
Protocol: The whole pig brains, excluding cerebellum and most of the brain stem, of three pigs were placed in liquid nitrogen within 30 min from killing and stored at −80° C. until homogenized. The brains were homogenized with a glass-teflon homogenisator in 3 volumes (w/v) of ice-cold 0.1 M sodium-potassium phosphate buffer (pH 7.0) and the homogenates were centrifuged for 20 min at 4° C. at 10000 g. The supernatants were collected, pooled and stored in small aliquots at −80° C. until used. The supernatant was thawn in ice just before activity assay and diluted in a ratio 1:2 with homogenisation buffer (=enzyme preparation). […]
Formation of 7-amido-4-methylcoumarin was determined fluorometrically with microplate fluorescence reader (excitation at 360 nm and emission at 460 nm). […]
The prolyl oligopeptidase activity was calculated with the following formula in the presence of various concentrations of novel compounds. To reveal the inhibitory potency of the novel compound, activities (% of control) were plotted against the log concentration of the compound, and the IC50 value was determined by non-linear regression utilizing GraphPad Prism software. […]

| IC50 | Structure (SMILES) |
| --- | --- |
| 48 nM | O=C([C@@H]1CCCN1C(=O)CCCC(=O)N1CCC[C@H]1C(=O)N1CCCC1)N1CCCC1 [Example 4, Glutaric acid di-(L-prolyl-pyrrolidine)amide] |
| 1.5 nM | N#C[C@@H]1CCCN1C(=O)[C@@H]1CCCN1C(=O)c1cccc(C(=O)N2CCC[C@H]2C(=O)N2CCCC2)c1 [Example 12, Isophthalic acid L-prolyl-2(S)-cyanopyrrolidine L-prolyl-pyrrolidine amide] |
